Data from PubChem BioAssay AID1224865 (Sanford-Burnham Center for Chemical Genomics, 2016).
The list shows a part of the results, in another mix than the full data. The source made the active and inactive calls. No stated cut-off is given here; in the data, active means activity change above about 30% (passing the limit was not always enough); inactive means the rest.

Amino acid sequences for entries named in this document (tags omitted).
UniProt P41235, whole entry: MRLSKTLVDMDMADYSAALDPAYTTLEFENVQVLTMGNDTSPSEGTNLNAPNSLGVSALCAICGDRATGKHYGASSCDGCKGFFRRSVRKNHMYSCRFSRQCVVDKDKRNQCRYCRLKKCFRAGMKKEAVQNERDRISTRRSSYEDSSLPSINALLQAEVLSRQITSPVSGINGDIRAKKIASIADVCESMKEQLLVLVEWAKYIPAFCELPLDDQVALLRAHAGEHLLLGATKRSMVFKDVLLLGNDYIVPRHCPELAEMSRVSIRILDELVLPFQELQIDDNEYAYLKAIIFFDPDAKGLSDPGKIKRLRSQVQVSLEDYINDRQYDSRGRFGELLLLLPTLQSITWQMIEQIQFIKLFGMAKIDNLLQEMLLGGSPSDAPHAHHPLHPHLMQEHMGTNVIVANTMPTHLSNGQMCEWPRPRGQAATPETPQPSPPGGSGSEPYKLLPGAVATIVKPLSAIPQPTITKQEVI

These molecules were tested against Hepatocyte nuclear factor 4-alpha (Homo sapiens) (UniProt P41235) (assay: change in binding of human HNF4A to DNA, primary screen, biochemical, fluorescence polarization, FITC-DNA (AID 1224865)). Settings: 1 h, at 10 µM, stronger effect = higher value.
In the case of `c1ccc(CN2CCC(Nc3ccccc3)CC2)cc1`, the activity change is reported as inactive: -2.99%.
With `CCCN1CCC(Nc2cc(OC)cc(OC)c2)CC1` the activity change was inactive: -4.13%.
In the case of `O=c1[nH]c2ccccc2n1C1CCN(C(c2ccccc2)c2nnnn2C2CCCC2)CC1` (configuration not stated), the activity change is reported as inactive: 1.24%.
For `Cc1cc(N(CCCl)CCCl)ccc1C=O`, the activity change was inactive: -3%.
`CN(C)C1(CNC(=O)c2cccc(C#N)c2)CCCCC1` was tested, and the activity change was inactive: -0.96%.
`CC(C)(C)n1nnnc1C(c1cccc2ccccc12)N1CCC(n2c(=O)[nH]c3ccccc32)CC1` (configuration not stated) was tested, and the activity change was inactive: -1.34%.
For `CC(C)(C)OC(=O)N1CCC(N(C(=O)c2ccccc2)c2ccc(Cl)cc2)CC1`, the activity change was inactive: -1.26%.
In the case of `N#Cc1ccc(C(=O)NCC2(N3CCCCC3)CCCCC2)cc1`, the activity change is reported as inactive: 5.49%.
In the case of `N/C(=N\O)c1c(N)no[n+]1[O-]`, the activity change is reported as inactive: 1.64%.
For `COc1cccc(C(c2nnnn2C(C)(C)C)N2CCC(n3c(=O)[nH]c4ccccc43)CC2)c1OC` (configuration not stated), the activity change was inactive: 0.28%.
With `CCOC(=O)N1CCC(Nc2ccc(C)cc2)CC1` the activity change was inactive: 0.07%.
For `CCCCn1nnnc1C(c1cccc(OC)c1OC)N1CCC(n2c(=O)[nH]c3ccccc32)CC1` (configuration not stated), the activity change was inactive: 1.51%.
For `O=C(OC1CN2CCC1CC2)C1c2ccccc2C=Cc2ccccc21` (configuration not stated), the activity change was inactive: -1.6%.
In the case of `O=c1[nH]c2ccccc2n1C1CCN(C(c2cccs2)c2nnnn2C2CCCC2)CC1` (configuration not stated), the activity change is reported as inactive: 0.63%.
In the case of `O=C(NCC1(N2CCOCC2)CCCCC1)c1cc(Br)ccc1Cl`, the activity change is reported as inactive: 2%.
For `CCCCn1nnnc1C(c1ccccc1)N1CCC(n2c(=O)[nH]c3ccccc32)CC1` (configuration not stated), the activity change was inactive: -4.46%.
For `COc1cc(C(=O)NCC2(N3CCOCC3)CCCCC2)cc(OC)c1C`, the activity change was inactive: -0.75%.
`COc1ccc(C(=O)NCC2(N3CCOCC3)CCCCC2)cc1OC` was tested, and the activity change was inactive: 2.33%.
In the case of `O=c1[nH]c2ccccc2n1C1CCN(C(c2ccnc3ccccc23)c2nnnn2C2CCCC2)CC1` (configuration not stated), the activity change is reported as inactive: -0.08%.
With `O=c1[nH]c2ccccc2n1C1CCN(C(c2cccs2)c2nnnn2C2CCCCC2)CC1` (configuration not stated) the activity change was inactive: 3.99%.
With `CCC(CO)(C(=O)OC1CN2CCC1CC2)c1ccccc1` (configuration not stated) the activity change was inactive: -0.55%.
In the case of `COc1cccc(C(c2nnnn2C2CCCC2)N2CCC(n3c(=O)[nH]c4ccccc43)CC2)c1OC` (configuration not stated), the activity change is reported as inactive: -2.04%.
For `COc1cc(OC)cc(C(=O)NCC2(N3CCOCC3)CCCCC2)c1`, the activity change was inactive: 1.37%.
`COc1cccc(C(=O)N(c2cc(C)cc(C)c2)C2CCN(C(=O)OC(C)(C)C)CC2)c1` was tested, and the activity change was inactive: 1.39%.
With `CN1CCC(Nc2ccc(Cl)cc2)CC1` the activity change was inactive: -0.45%.
For `CCOc1ncccc1C(=O)NCC1(N2CCOCC2)CCCCC1`, the activity change was inactive: 4.68%.
In the case of `CN1CCC(Nc2ccc(F)c(Cl)c2)CC1`, the activity change is reported as inactive: -3.93%.
For `CCCOc1ccc(C(=O)NCC2(N(C)C)CCCCC2)cc1`, the activity change was inactive: 0.39%.
For `O=c1[nH]c2ccccc2n1C1CCN(C(c2cc3ccccc3o2)c2nnnn2C2CCCC2)CC1` (configuration not stated), the activity change was inactive: 3.37%.
In the case of `CC(C)(C)OC(=O)N1CCC(Nc2ccccc2)CC1`, the activity change is reported as inactive: -6.97%.
In the case of `O=C(O)C1(Nc2ccccc2)CCN(Cc2ccccc2)CC1`, the activity change is reported as inactive: -1.12%.
For `NN(c1ccccc1)C1CCN(CCc2ccccc2)CC1`, the activity change was inactive: -1.41%.
In the case of `Cc1ccccc1NC1(C#N)CCN(Cc2ccccc2)CC1`, the activity change is reported as inactive: -1.29%.
`CC(C)(C)n1nnnc1C(c1ccnc2ccccc12)N1CCC(n2c(=O)[nH]c3ccccc32)CC1` (configuration not stated) was tested, and the activity change was inactive: -0.32%.
`COc1ccc(C(c2nnnn2C2CCCCC2)N2CCC(n3c(=O)[nH]c4ccccc43)CC2)cc1` (configuration not stated) was tested, and the activity change was inactive: 2.59%.
With `CCN1CCC(Nc2cccc(F)c2)CC1` the activity change was inactive: 1.19%.
In the case of `O=C(NCC1(N2CCCCC2)CCCCC1)c1ccco1`, the activity change is reported as inactive: 5.9%.
`Cn1c(=O)[nH]cc(N(CCCl)CCCl)c1=O` was tested, and the activity change was inactive: -1.51%.
In the case of `CN(C)c1ccc(C(=O)NCC2(N3CCCCC3)CCCCC2)cc1`, the activity change is reported as inactive: 4.03%.
In the case of `O=c1[nH]c2ccccc2n1C1CCN(C(c2ccnc3ccccc23)c2nnnn2C2CCCCC2)CC1` (configuration not stated), the activity change is reported as inactive: 1.32%.
`COc1cc(OC)cc(C(=O)NCC2(N3CCCCC3)CCCCC2)c1` was tested, and the activity change was inactive: 0.97%.
In the case of `CC(=O)N(c1ccccc1)C1CCNCC1`, the activity change is reported as inactive: 1.89%.
`COc1cccc(C(c2nnnn2C2CCCCC2)N2CCC(n3c(=O)[nH]c4ccccc43)CC2)c1OC` (configuration not stated) was tested, and the activity change was inactive: -0.38%.
For `CCC(c1nnnn1C1CCCCC1)N1CCC(n2c(=O)[nH]c3ccccc32)CC1` (configuration not stated), the activity change was inactive: 1%.
With `Cc1ccc(NC2(C#N)CCN(Cc3ccccc3)CC2)cc1` the activity change was inactive: 0.25%.
With `Cc1ccc(C(=O)NCC2(N3CCCCC3)CCCCC2)o1` the activity change was inactive: -1.66%.
For `Fc1ccccc1NC1CCN(Cc2ccccc2)CC1`, the activity change was inactive: -4.95%.
